Measurements: PubChem BioAssay (NCI)
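How tested: cells in 96-well plates exposed to compound for 48 hours at five concentrations. GI50 marks 50% less growth. TGI marks complete inhibition of growth.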

Legend:
Test in all cases: NCI-60 cell line screen, 48 h
[1] = test system: MOLT-4 leukemia
[2] = test system: SK-MEL-28 melanoma
[3] = test system: NCI/ADR-RES ovarian
[4] = test system: MCF7 breast
[5] = test system: NCI-H460 lung
[6] = test system: RXF 393 renal
[7] = test system: IGROV1 ovarian
[8] = test system: 786-0 renal
[9] = test system: MDA-MB-435
[10] = test system: SN12C renal
[11] = test system: HCT-116 colon
[12] = test system: HT29 colon
[13] = test system: HL-60(TB) leukemia
[14] = test system: SK-OV-3 ovarian
[15] = test system: EKVX NSCLC
[16] = test system: HCT-15 colon
[17] = test system: HOP-62 NSCLC
[18] = test system: NCI-H322M lung
[19] = test system: SF-268 CNS
[20] = test system: K-562 leukemia
[21] = test system: HS 578T breast
[22] = test system: TK-10 renal
[23] = test system: M14 melanoma
[24] = test system: T-47D breast
[25] = test system: OVCAR-5 ovarian
[26] = test system: A549 NSCLC
[27] = test system: SK-MEL-5 melanoma
[28] = test system: CCRF-CEM leukemia
[29] = test system: UO-31 renal
[30] = test system: NCI-H226 lung
[31] = test system: SNB-75 CNS
[32] = test system: COLO 205 colon
[33] = test system: SNB-19 CNS
[34] = test system: HOP-92 NSCLC
[35] = test system: LOX IMVI melanoma
[36] = test system: U251 CNS
[37] = test system: UACC-257 melanoma
[38] = test system: SF-295 CNS
[39] = test system: OVCAR-4 ovarian
[40] = test system: BT-549 breast
[41] = test system: SK-MEL-2 melanoma
[42] = test system: MDA-MB-231 breast
[43] = test system: NCI-H23 lung
[44] = test system: ACHN renal
[45] = test system: SF-539 CNS
[46] = test system: KM12 colon
[47] = test system: UACC-62 melanoma
[48] = test system: PC-3 prostate
[49] = test system: HCC-2998 colon
[50] = test system: A498 renal
[51] = test system: RPMI-8226 leukemia
[52] = test system: MALME-3M melanoma
[53] = test system: OVCAR-3 ovarian
[54] = test system: SW-620 colon
[55] = test system: NCI-H522 lung
[56] = test system: OVCAR-8 ovarian
[57] = test system: SR leukemia

**Q.** Which results are given for `CC(=O)O[C@@H]1C[C@H]2O[C@@H]3C=C(C)CC[C@]3(C)[C@]1(C)[C@]21CO1`?
**A.** GI50 [1]: 1.08 µM; TGI [1]: 26.8 µM; GI50 [2]: 1.03 µM; TGI [2]: 4.38 µM; GI50 [3]: 1.66 µM; TGI [3]: 18.5 µM; GI50 [4]: 0.992 µM; TGI [4]: > 33.3 µM; GI50 [5]: 1.26 µM; TGI [5]: 9.82 µM; GI50 [6]: 1.75 µM; TGI [6]: 9.94 µM; GI50 [7]: 2.29 µM; TGI [7]: 20 µM; GI50 [8]: 2.09 µM; TGI [8]: 16.2 µM; GI50 [9]: 1.17 µM; TGI [9]: 7.2 µM; GI50 [10]: 2.14 µM; TGI [10]: 21 µM; GI50 [11]: 0.925 µM; TGI [11]: 5.64 µM; GI50 [12]: 1.34 µM; TGI [12]: 9.5 µM; GI50 [13]: 0.975 µM; TGI [13]: 2.69 µM; GI50 [14]: 2.01 µM; TGI [14]: 14.7 µM; GI50 [15]: 2.49 µM; TGI [15]: 23.7 µM; GI50 [16]: 1.18 µM; TGI [16]: 16.2 µM; GI50 [17]: 5.44 µM; TGI [17]: 20.2 µM; GI50 [18]: 1.61 µM; TGI [18]: 15.7 µM; GI50 [19]: 1.55 µM; TGI [19]: 20.8 µM; GI50 [20]: 1.34 µM; TGI [20]: > 33.3 µM; GI50 [21]: 1.65 µM; TGI [21]: 15.2 µM; GI50 [22]: 6.55 µM; TGI [22]: 23.3 µM; GI50 [23]: 0.868 µM; TGI [23]: 2.75 µM; GI50 [24]: 0.816 µM; TGI [24]: 4.93 µM; GI50 [25]: 6.59 µM; TGI [25]: 24.2 µM; GI50 [26]: 1.81 µM; TGI [26]: 21.5 µM; GI50 [27]: 0.972 µM; TGI [27]: 2.93 µM; GI50 [28]: 1.22 µM; TGI [28]: > 33.3 µM; GI50 [29]: 4.01 µM; TGI [29]: 22.7 µM; GI50 [30]: 3.35 µM; TGI [30]: 18.5 µM; GI50 [31]: 1.14 µM; TGI [31]: 10.1 µM; GI50 [32]: 0.754 µM; TGI [32]: 1.96 µM; GI50 [33]: 1.28 µM; TGI [33]: 20.9 µM; GI50 [34]: 2.43 µM; TGI [34]: 20.5 µM; GI50 [35]: 0.763 µM; TGI [35]: 3.07 µM; GI50 [36]: 1.28 µM; TGI [36]: 15.9 µM; GI50 [37]: 1.72 µM; TGI [37]: 15.1 µM; GI50 [38]: 4.85 µM; TGI [38]: 22.2 µM; GI50 [39]: 0.994 µM; TGI [39]: 5.88 µM; GI50 [40]: 1.47 µM; TGI [40]: 10.3 µM; GI50 [41]: 1.02 µM; TGI [41]: 4.61 µM; GI50 [42]: 3.29 µM; TGI [42]: 14.6 µM; GI50 [43]: 1.41 µM; TGI [43]: 14.8 µM; GI50 [44]: 2.03 µM; TGI [44]: 10.6 µM; GI50 [45]: 1.28 µM; TGI [45]: 7.47 µM; GI50 [46]: 1.88 µM; TGI [46]: 16.7 µM; GI50 [47]: 1.53 µM; TGI [47]: 8.37 µM; GI50 [48]: 5.32 µM; TGI [48]: > 33.3 µM; GI50 [49]: 3.35 µM; TGI [49]: 15.7 µM; GI50 [50]: 5.49 µM; TGI [50]: 14.1 µM; GI50 [51]: 1.64 µM; TGI [51]: 18.1 µM; GI50 [52]: 2.3 µM; TGI [52]: 13.2 µM; GI50 [53]: 1.64 µM; TGI [53]: 11.7 µM; GI50 [54]: 1.29 µM; TGI [54]: 16.7 µM; GI50 [55]: 1 µM; TGI [55]: 5.16 µM; GI50 [56]: 1.4 µM; TGI [56]: 21 µM; GI50 [57]: 1.33 µM; TGI [57]: > 33.3 µM
